# Results from patent US20090214627.
# B1: Insulin receptor beta (IRK), 48 kDa cytoplasmic domain of the beta-subunit (protein)
# chain: RKRQPDGPLGPLYASSNPEYLSASDVFPCSVYVPDEWEVSREKITLLRELGQGSFGMVYEGNARDIIKGEAETRVAVKTVNESASLRERIEFLNEASVMKGFTCHHVVRLLGVVSKGQPTLVVMELMAHGDLKSYLRSLRPEAENNPGRPPPTLQEMIQMAAEIADGMAYLNAKKFVHRDLAARNCMVAHDFTVKIGDFGMTRDIYETDYYRKGGKGLLPVRWMAPESLKDGVFTTSSDMWSFGVVLWEITSLAEQPYQGLSNEQVLKFVMDGGYLDQPDNCPERVTDLMRMCWQFNPKMRPTFLEIVNLLKDDLHPSFPEVSFFHSEENKAPESEELEMEFEDMENVPLDRSSHCQREEAGGRDGGSSLGFKRSYEEHIPYTHMNGGKKNGRILTLPRSNPS
# Molecular target: T1, GST-hBVR fusion protein, wild type (human biliverdin reductase fused to glutathione-S-transferase)
# T1 chain: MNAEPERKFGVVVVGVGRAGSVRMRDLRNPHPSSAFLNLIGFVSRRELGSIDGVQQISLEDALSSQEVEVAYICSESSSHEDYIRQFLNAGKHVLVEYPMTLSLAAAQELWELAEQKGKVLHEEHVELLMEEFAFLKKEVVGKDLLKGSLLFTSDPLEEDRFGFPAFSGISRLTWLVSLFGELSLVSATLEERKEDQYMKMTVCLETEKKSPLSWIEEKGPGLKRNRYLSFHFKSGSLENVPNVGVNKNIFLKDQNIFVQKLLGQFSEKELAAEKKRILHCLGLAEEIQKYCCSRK
protein,measurement,value
B1,BVR reductase activity after in vitro phosphorylation by IRK,BVR phosphorylation by IRK in vitro increases BVR reductase activity
